Molecular target: Histamine H3 receptor (Homo sapiens, UniProt Q9Y5N1)
Assay: Displacement of [3H]histamine from human H3 receptor expressed in HEK293 cells after 1 to 1.5 hrs by scintillation counting
Assay type: cell-based

By UniProt entry, the sequences of proteins in these tests, tags left out. Where a name states a change or a piece, a line headed by the entry shows the natural chain unless it says otherwise.
UniProt Q9Y5N1: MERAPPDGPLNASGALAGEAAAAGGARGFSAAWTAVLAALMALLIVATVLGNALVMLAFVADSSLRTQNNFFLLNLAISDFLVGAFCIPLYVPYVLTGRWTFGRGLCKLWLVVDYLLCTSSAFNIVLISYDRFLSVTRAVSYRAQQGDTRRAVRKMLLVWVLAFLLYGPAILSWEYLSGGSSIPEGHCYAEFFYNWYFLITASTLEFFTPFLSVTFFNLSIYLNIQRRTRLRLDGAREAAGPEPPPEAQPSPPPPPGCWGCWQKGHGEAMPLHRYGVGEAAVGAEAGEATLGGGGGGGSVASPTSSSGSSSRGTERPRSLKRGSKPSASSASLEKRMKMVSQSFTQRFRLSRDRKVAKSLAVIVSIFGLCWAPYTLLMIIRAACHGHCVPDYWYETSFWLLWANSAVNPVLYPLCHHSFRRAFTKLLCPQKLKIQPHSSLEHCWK

## NC(=NCc1ccc(Cl)cc1)SCCCc1cnc[nH]1 [CLOBENPROPIT]
  Ki: 2.82 nM

Source: ChEMBL document CHEMBL1921707 (J Med Chem, 2011)
